The text below walks through data of PubChem BioAssay AID504339 (National Center for Advancing Translational Sciences (NCATS), 2011).

Amino acid sequences for entries named in this document (tags omitted).
UniProt O75164, whole entry: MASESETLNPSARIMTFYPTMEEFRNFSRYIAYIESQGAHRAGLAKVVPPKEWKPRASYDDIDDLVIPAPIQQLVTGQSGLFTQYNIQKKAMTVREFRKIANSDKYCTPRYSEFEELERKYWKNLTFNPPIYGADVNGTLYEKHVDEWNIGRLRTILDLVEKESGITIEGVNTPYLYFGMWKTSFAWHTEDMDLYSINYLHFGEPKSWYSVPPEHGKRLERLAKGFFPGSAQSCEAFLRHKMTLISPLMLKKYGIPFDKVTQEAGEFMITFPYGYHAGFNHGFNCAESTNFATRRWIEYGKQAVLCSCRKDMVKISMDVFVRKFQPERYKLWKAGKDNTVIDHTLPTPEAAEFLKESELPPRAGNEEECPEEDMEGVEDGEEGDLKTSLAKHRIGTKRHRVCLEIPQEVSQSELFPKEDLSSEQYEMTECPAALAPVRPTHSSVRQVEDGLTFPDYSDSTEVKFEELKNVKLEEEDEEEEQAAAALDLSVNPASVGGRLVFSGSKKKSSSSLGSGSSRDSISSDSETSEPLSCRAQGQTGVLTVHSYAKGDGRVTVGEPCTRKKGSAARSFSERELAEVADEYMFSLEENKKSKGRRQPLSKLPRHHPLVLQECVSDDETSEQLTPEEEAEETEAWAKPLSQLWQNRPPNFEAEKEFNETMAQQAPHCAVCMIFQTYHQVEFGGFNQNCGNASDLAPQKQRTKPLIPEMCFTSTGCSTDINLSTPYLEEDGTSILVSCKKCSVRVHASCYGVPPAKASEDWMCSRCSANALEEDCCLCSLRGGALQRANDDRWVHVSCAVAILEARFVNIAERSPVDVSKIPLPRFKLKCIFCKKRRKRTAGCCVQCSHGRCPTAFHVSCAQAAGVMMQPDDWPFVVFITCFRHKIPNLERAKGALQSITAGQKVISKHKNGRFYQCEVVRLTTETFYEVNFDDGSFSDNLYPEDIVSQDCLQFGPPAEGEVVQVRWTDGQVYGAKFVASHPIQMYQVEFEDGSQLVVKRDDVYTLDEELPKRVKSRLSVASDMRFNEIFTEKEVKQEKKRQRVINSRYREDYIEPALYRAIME

Only a part is listed here, and it is no random draw. Inconclusive results are not listed. Entries that show only a call come without a potency. The source made the active and inactive calls. The call rests on the fitted dose curve; in most records, active means well fitted inhibition curve with a large enough effect; inconclusive means small, poorly fitted or top-dose-only effect; inactive means no such curve, though single readings can be large or run the other way.
Potency means the concentration at half of the fitted maximal effect.

The target of the test is Lysine-specific demethylase 4A (Homo sapiens) (UniProt O75164). Briefly: qHTS Assay for Inhibitors of JMJD2A-Tudor Domain. Further: nearly all actives have a fitted effect of over 50% in size. As to conditions: AlphaScreen JMJD2A-Tudor / H3K4me3 peptide binding; series mostly up to 114 µM.
Consider `CCC(CO)(C(=O)OC1CN2CCC1CC2)c1ccccc1` (stereo not given), for which the Potency result was “inactive”.
The same measure for `COc1cccc(C(=O)N(c2cc(C)cc(C)c2)C2CCN(C(=O)OC(C)(C)C)CC2)c1`: “inactive”; for `COc1cc(OC)cc(C(=O)NCC2(N3CCOCC3)CCCCC2)c1`: “inactive”.
The same measure for `COc1cc(C(=O)NCC2(N3CCOCC3)CCCCC2)cc(OC)c1OC`: “inactive”; for `CN1CCC(Nc2ccc(Cl)cc2)CC1`: “inactive”; for `CN1CCC(Nc2ccc(F)c(Cl)c2)CC1`: active: 7.94 µM.
In the case of `CCOc1ncccc1C(=O)NCC1(N2CCOCC2)CCCCC1`, the Potency entry is “inactive”.
As for `CCCOc1ccc(C(=O)NCC2(N(C)C)CCCCC2)cc1`, the Potency entry was “inactive”.
The same measure for `O=C(O)C1(Nc2ccccc2)CCN(Cc2ccccc2)CC1`: “inactive”; for `CC(C)(C)OC(=O)N1CCC(Nc2ccccc2)CC1`: “inactive”.
The same measure for `CCN1CCC(Nc2cccc(F)c2)CC1`: active: 3.55 µM; for `Cc1ccccc1NC1(C#N)CCN(Cc2ccccc2)CC1`: “inactive”; for `CN(C)c1ccc(C(=O)NCC2(N3CCCCC3)CCCCC2)cc1`: “inactive”.
The same measure for `Cn1c(=O)[nH]cc(N(CCCl)CCCl)c1=O`: “inactive”.
Consider `O=C(NCC1(N2CCCCC2)CCCCC1)c1ccco1`, for which the Potency result is “inactive”.
Take `CC(C)(C)c1ccc(C(=O)NCC2(N3CCOCC3)CCCCC2)cc1`: the Potency entry was “inactive”.
The value for `Cc1ccccc1C(=O)NCC1(N(C)C)CCCCC1` was “inactive”.
`COc1cc(OC)cc(C(=O)NCC2(N3CCCCC3)CCCCC2)c1`: the Potency entry is “inactive”.
The value for `CN(C)C1(CNC(=O)c2ccc(C(C)(C)C)cc2)CCCCC1` was “inactive”; that for `CC(=O)N(c1ccccc1)C1CCNCC1` was “inactive”; that for `Cc1ccc(NC2(C#N)CCN(Cc3ccccc3)CC2)cc1` was “inactive”.
The value for `Fc1ccccc1NC1CCN(Cc2ccccc2)CC1` was active: 79.4 µM; that for `Cc1ccc(C(=O)NCC2(N3CCCCC3)CCCCC2)o1` was “inactive”; that for `O=C(NCC1(N2CCOCC2)CCCCC1)c1ccccc1` was “inactive”.
The value for `Cc1cc(N(CCCl)CCCl)ccc1C=O` was “inactive”.
As for `CCCN1CCC(Nc2cc(OC)cc(OC)c2)CC1`, the Potency entry was “inactive”.
The value for `c1ccc(CN2CCC(Nc3ccccc3)CC2)cc1` was “inactive”.
The same measure for `CN(C)C1(CNC(=O)c2cccc(C#N)c2)CCCCC1`: “inactive”; for `CC(C)(C)OC(=O)N1CCC(N(C(=O)c2ccccc2)c2ccc(Cl)cc2)CC1`: “inactive”; for `O=C(NCC1(N2CCOCC2)CCCCC1)c1ccc([N+](=O)[O-])cc1`: “inactive”.
The value for `O=C(NCC1(N2CCOCC2)CCCCC1)c1ccccc1[N+](=O)[O-]` was “inactive”; that for `N#Cc1ccc(C(=O)NCC2(N3CCCCC3)CCCCC2)cc1` was “inactive”.
Take `CCOC(=O)C(CC)C1=NC(C)(C)Cc2ccccc21.O=[N+]([O-])c1cc([N+](=O)[O-])c(O)c([N+](=O)[O-])c1` (stereo not given): the Potency result is “inactive”.
Take `N/C(=N\O)c1c(N)no[n+]1[O-]`: the Potency result was “inactive”.
For `CCOC(=O)N1CCC(Nc2ccc(C)cc2)CC1`, the Potency result was “inactive”.
The value for `O=C(O)c1cccc(Nc2c([N+](=O)[O-])cc([N+](=O)[O-])cc2[N+](=O)[O-])c1` was “inactive”; that for `CCc1cc(C(=O)NCC2(N3CCCCC3)CCCCC2)sc1C` was “inactive”; that for `O=C(OC1CN2CCC1CC2)C1c2ccccc2C=Cc2ccccc21` (stereo not given) was “inactive”.
The value for `O=C(NCC1(N2CCOCC2)CCCCC1)c1cc(Br)ccc1Cl` was “inactive”; that for `COc1cc(C(=O)NCC2(N3CCOCC3)CCCCC2)cc(OC)c1C` was “inactive”; that for `COc1ccc(C(=O)NCC2(N3CCOCC3)CCCCC2)cc1OC` was “inactive”.
The same measure for `CN1CCC(Nc2cccc(F)c2)CC1`: active: 22.4 µM.
With `O=C(NCC1(N2CCCCC2)CCCCC1)c1cncc(Br)c1`, the Potency entry is “inactive”.
The same measure for `O=C(OC1CN2CCC1CC2)c1ccc([N+](=O)[O-])cc1` (stereo not given): “inactive”; for `O=C(NCC1(N2CCOCC2)CCCCC1)c1ccccc1Br`: “inactive”; for `CCCOc1ccc(C(=O)NCC2(N(C)C)CCCCC2)cc1OC`: “inactive”.
The value for `CCCCOc1ccccc1C(=O)NCC1(N2CCOCC2)CCCCC1` was “inactive”.
With `CN(C)c1cccc(C(=O)NCC2(N3CCCCC3)CCCCC2)c1`, the Potency entry was “inactive”.
The same measure for `O=[N+]([O-])c1cc([N+](=O)[O-])c(OC2CCCCC2O)c([N+](=O)[O-])c1` (stereo not given): “inactive”.
The same measure for `O=C(NCC1(N2CCOCC2)CCCCC1)c1cc(F)c(F)cc1Cl`: “inactive”.
For the compound `COc1cc(OC)c(C(=O)NCC2(N(C)C)CCCCC2)cc1OC`, the Potency result is “inactive”.
Take `O=C(NCC1(N2CCCCC2)CCCCC1)c1cccc(C(F)(F)F)c1`: the Potency entry is “inactive”.
The value for `CCCOc1cccc(C(=O)NCC2(N3CCOCC3)CCCCC2)c1` was “inactive”; that for `O=[N+]([O-])c1cc([N+](=O)[O-])c(NCC2CCS(=O)(=O)C2)c([N+](=O)[O-])c1` (stereo not given) was “inactive”; that for `CC(C)c1ccc(C(=O)NCC2(N3CCOCC3)CCCCC2)cc1` was “inactive”.
The value for `COc1ccc(NC2CCN(C(=O)OC(C)(C)C)CC2)cc1` was “inactive”.
The same measure for `CN1CCN(CCOC(=O)C(O)(c2ccccc2)c2ccccc2)CC1`: “inactive”; for `O=C(NCC1(N2CCOCC2)CCCCC1)c1cc(=O)[nH]c2ccccc12`: “inactive”.
For the compound `COc1cc(C(=O)NCC2(N3CCCCC3)CCCCC2)ccc1OC(F)F`, the Potency entry was “inactive”.
The same measure for `O=C(NCC1(N2CCCCC2)CCCCC1)c1ccc(OC(F)F)cc1`: “inactive”; for `CCOc1ccc(C(=O)NCC2(N3CCOCC3)CCCCC2)cc1`: “inactive”; for `O=C(NCC1(N2CCCCC2)CCCCC1)c1cccc([N+](=O)[O-])c1`: “inactive”.
The same measure for `CSc1ccc(C(=O)NCC2(N3CCOCC3)CCCCC2)cc1`: “inactive”.
The value for `N#CC1(Nc2ccccc2)CCN(CCc2ccccc2)CC1` was “inactive”.
`CCN1CCC(Nc2ccc(Cl)cc2)CC1`: the Potency result is “inactive”.
The same measure for `CCOC(=O)N1CCC(Nc2cccc(C)c2)CC1`: “inactive”.
On to `COc1cc(C(=O)NCC2(N(C)C)CCCCC2)ccc1OC(F)F`, for which the Potency result was “inactive”.
The same measure for `CCOc1ccc(C)cc1CN(CCCl)CCCl`: active: 70.8 µM; for `O=C1CCN(Cc2ccccc2)CC1`: “inactive”; for `O=C(NCC1(N2CCOCC2)CCCCC1)c1ccc(Cl)cc1`: “inactive”.
Turning to `CCOC(=O)N1CCC(Nc2ccc(F)cc2)CC1`, the Potency result was “inactive”.
The same measure for `CCCCOc1ccc(C(=O)NCC2(N3CCOCC3)CCCCC2)cc1`: “inactive”; for `O=P1(N(CCCl)CCCl)SCCCS1`: “inactive”.
The value for `O=C(NCC1(N2CCCCC2)CCCCC1)c1ccc(F)cc1` was “inactive”; that for `COc1ccccc1C(=O)NCC1(N2CCOCC2)CCCCC1` was “inactive”.
The same measure for `O=C(NCC1(N2CCOCC2)CCCCC1)c1cc2ccccc2o1`: “inactive”; for `Cc1cc(C)cc(N(C(=O)c2ccccc2)C2CCN(C(=O)OC(C)(C)C)CC2)c1`: “inactive”; for `O=C(NCC1(N2CCCCC2)CCCCC1)c1ccc(Cl)nc1`: “inactive”.
For the compound `CCOC(=O)N1CCC(Nc2ccc(OC)cc2)CC1`, the Potency result was “inactive”.
The value for `COc1ccc(Cl)cc1C(=O)NCC1(N2CCOCC2)CCCCC1` was “inactive”.
The value for `O=C(NCC1(N2CCCCC2)CCCCC1)c1ccc(Cl)s1` was “inactive”.
The same measure for `N#CC1(Nc2ccccc2)CCN(Cc2ccccc2)CC1`: “inactive”; for `O=C(OC1CN2CCC1CC2)C1c2ccccc2Oc2ccccc21` (stereo not given): “inactive”; for `O=C(NCC1(N2CCCCC2)CCCCC1)c1cccs1`: “inactive”.
As to `O=C(NCC1(N2CCCCC2)CCCCC1)c1ccc(=O)[nH]c1`, the Potency result is “inactive”.
The same measure for `CC(C)(C)OC(=O)N1CCC(N(C(=O)c2ccccc2)c2ccc(F)cc2)CC1`: “inactive”; for `COc1ccc(C(=O)NCC2(N3CCCCC3)CCCCC2)c(OC)c1OC`: “inactive”.
Take `COc1ccc(C(=O)NCC2(N3CCCCC3)CCCCC2)cc1`: the Potency entry was “inactive”.
The same measure for `Cc1cccc(NC2(C#N)CCN(Cc3ccccc3)CC2)c1`: “inactive”; for `CSc1ccccc1C(=O)NCC1(N2CCCCC2)CCCCC1`: “inactive”.
